## Ab-14 heavy chain CDR variants: yeast mating affinities

The target is the same throughout: PDVDLGDISGINAS, from the HR2 region of SARS-CoV-2 spike.

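The starting antibody came from a phage panning campaign against this peptide. Variants in AAYL49 differ from the parent at up to three CDR positions; double and triple changes were sampled at random. Affinity was read by AlphaSeq, a pooled yeast mating assay with surface-displayed partners. The frequency of each diploid, read from paired DNA barcodes, reflects how well the two displayed proteins bind. A regression on co-assayed BCL2-family reference pairs converts the normalised counts of each replicate to an apparent Kd. There are three technical replicates.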

Each scFv is VH, three GGGGS repeats, VL, as in the parent Ab-14, and differs from it in the CDRs of the heavy chain only.
VH: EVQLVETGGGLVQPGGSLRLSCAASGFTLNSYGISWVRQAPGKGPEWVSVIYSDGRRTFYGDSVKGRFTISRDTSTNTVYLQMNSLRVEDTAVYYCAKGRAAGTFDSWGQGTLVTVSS
VL: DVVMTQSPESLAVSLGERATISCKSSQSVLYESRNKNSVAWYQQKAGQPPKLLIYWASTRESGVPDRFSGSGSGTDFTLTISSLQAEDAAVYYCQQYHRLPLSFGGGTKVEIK

Substitutions are numbered in sequence along the VH above, starting at 1 (not Kabat).
This list gathers variants with a substitution at S35 (VH, numbered from residue 1).
Scale: log10 of Kd in nM, estimated from mating counts; low values are strong binders.
A mean of the replicates is given; it leaves out those without a signal.
A pair that was not seen in any replicate is written "nd"; this usually means weak binding, but a binder can also be missed.
Empty control strains, which show no peptide, gave a signal in 15% of pairings with library AAYL49; the median was 4.06 and 95% of these signals were weaker than 2.83. No background was subtracted.
In this assay the parent's reference entry averaged 0.65; its copy inside this library read 4.11 (one replicate of three).

Variant S35E+T58Q+S63C gave nd (0 of 3 replicates).
Variant S35I+R100S+G103S gave nd (0 of 3 replicates).
Variant L29A+S35A+I51L gave nd (0 of 3 replicates).
Variant Y32M+S35R+D62V gave 5.08 (2 of 3 replicates).
Variant N30G+S35L+T104P gave nd (0 of 3 replicates).
Variant G26L+S35I+D54L gave nd (0 of 3 replicates).
Variant I34C+S35Y+F59H gave nd (0 of 3 replicates).
Variant T28R+S35C+D62P gave 4.19 (1 of 3 replicates).
Variant G33V+I34E+S35W gave nd (0 of 3 replicates).
Variant S35P+D54N+R100V gave 3.42 (1 of 3 replicates).
Variant S35M+F59I+D106A gave 3.83 (1 of 3 replicates).
Variant S35M+S63E+D106C gave nd (0 of 3 replicates).
Variant S35Y+Y60E+S107R gave nd (0 of 3 replicates).
Variant S35W+V50N+D62S gave nd (0 of 3 replicates).
Variant S35D+F59D gave 2.83 (1 of 3 replicates).
Variant S35A+V64S gave 3.59 (3 of 3 replicates).
Variant G33T+S35T+D106P gave 4.75 (1 of 3 replicates).
Variant T28Y+S35T+K65I gave nd (0 of 3 replicates).
Variant S35Y+S53T+G61R gave nd (0 of 3 replicates).
Variant S35C+V64P+S107M gave 3.74 (2 of 3 replicates).
Variant S35K+V50I+K65F gave nd (0 of 3 replicates).
Variant S35T+V50I+F59M gave 1.83 (2 of 3 replicates).
Variant S35A+A102P gave 3.26 (2 of 3 replicates).
Variant S35L+G99W gave 3.66 (1 of 3 replicates).
Variant I34F+S35N+Y60E gave nd (0 of 3 replicates).
Variant G26W+S35V+S63R gave nd (0 of 3 replicates).
Variant L29P+S35G+A101V gave nd (0 of 3 replicates).
Variant S35E+R56H gave nd (0 of 3 replicates).
Variant S35I+A101I+A102E gave 3.57 (1 of 3 replicates).
Variant S35F+R57C+T58K gave nd (0 of 3 replicates).
Variant S35T+K65Y+S107I gave nd (0 of 3 replicates).
Variant S31I+S35T+T58G gave nd (0 of 3 replicates).
Variant S35M+R57F+V64L gave nd (0 of 3 replicates).

Data: MIT Lincoln Laboratory AlphaSeq set, Engelhart et al. 2022, doi:10.1038/s41597-022-01779-4, as distributed in FLAb.